# Values of other authors as cited in patent publication US11021435B2, “Serotonin receptor-targeting compounds and methods” (priority 2014, dated 2021).
# By UniProt entry, the sequences of proteins in these tests, tags left out.
# UniProt P41595, whole entry: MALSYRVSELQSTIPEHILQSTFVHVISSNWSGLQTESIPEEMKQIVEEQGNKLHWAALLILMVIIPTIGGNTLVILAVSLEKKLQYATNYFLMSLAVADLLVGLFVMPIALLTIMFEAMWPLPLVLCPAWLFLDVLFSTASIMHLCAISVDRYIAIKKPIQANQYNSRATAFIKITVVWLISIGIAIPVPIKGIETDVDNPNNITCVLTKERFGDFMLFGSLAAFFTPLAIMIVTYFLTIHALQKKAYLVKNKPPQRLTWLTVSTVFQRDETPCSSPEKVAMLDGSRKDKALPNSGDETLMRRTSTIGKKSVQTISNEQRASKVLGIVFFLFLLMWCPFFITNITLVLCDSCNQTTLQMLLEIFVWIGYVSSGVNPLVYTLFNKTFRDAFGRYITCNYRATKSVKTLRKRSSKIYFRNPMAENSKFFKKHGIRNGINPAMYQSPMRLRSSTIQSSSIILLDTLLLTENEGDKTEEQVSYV
# UniProt P28223, whole entry: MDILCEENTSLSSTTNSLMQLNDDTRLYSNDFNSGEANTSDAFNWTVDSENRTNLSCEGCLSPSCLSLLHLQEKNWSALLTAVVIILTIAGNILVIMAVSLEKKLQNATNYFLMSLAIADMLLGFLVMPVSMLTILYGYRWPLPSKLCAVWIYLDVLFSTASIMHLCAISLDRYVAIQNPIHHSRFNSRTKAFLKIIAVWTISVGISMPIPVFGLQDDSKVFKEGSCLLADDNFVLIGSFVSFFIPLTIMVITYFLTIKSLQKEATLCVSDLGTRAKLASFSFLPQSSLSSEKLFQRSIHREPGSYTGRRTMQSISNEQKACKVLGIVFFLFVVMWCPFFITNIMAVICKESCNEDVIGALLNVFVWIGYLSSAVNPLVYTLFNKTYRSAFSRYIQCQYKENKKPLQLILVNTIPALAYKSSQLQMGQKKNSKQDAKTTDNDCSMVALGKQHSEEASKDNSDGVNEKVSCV
# Legend:
# [1] = target: 5-HT2B (Homo sapiens, UniProt P41595); set-up: expressed in transfected cells; host or cells: HEK293, transient; settings: cited from earlier work
# [2] = target: 5-HT2A (Homo sapiens, UniProt P28223); set-up: expressed in transfected cells; host or cells: HEK293, transient; settings: cited from earlier work
structure (smiles),measurement,setting,value
Clc1cccc(N2CCNCC2)c1 [mCPP],Activation of 5-HT2B receptors by reported selective 5-HT2C agonists,[1],also activate
same,Activation of 5-HT2A receptors by reported selective 5-HT2C agonists,[2],also activate
